Measurements: publication PMC3910272, “Assay Platform for Clinically Relevant Metallo-β-lactamases” (Journal of Medicinal Chemistry, 2013)

Experiments:
Experiment in all cases: purified protein, by the assay type
[1] = tested on: O=C(Cc1ccccc1)N[C@@H]1C(=O)N2C(C(=O)O)=C(COc3ccc4ccc(=O)oc4c3)C[S+]([O-])[C@H]12; conditions: substrate hydrolysis
[2] = tested on: O=C(Cc1cccs1)N[C@@H]1C(=O)N2C(C(=O)O)=C(CSc3ccc([N+](=O)[O-])c(C(=O)O)c3)CS[C@H]12; conditions: substrate hydrolysis
[3] = tested on: [H][C@@]12[C@H](NC(=O)Cc3ccccc3)C(=O)N1C(C(=O)O)=C(COc1ccc3ccc(=O)oc3c1)CS2(=O)=O; conditions: substrate hydrolysis
[4] = tested on: O=C(Cc1ccccc1)N[C@@H]1C(=O)N2C(C(=O)O)=C(COc3ccc4ccc(=O)oc4c3)CS[C@H]12; conditions: other: NDM-1; substrate hydrolysis

BcII (Bacillus cereus) was tested, and the Km ([1]; other: BcII) was 24.4 ± 1.7 µM, the kcat ([1]; other: BcII) was 17.1 s⁻¹ and the Km ([2]; other: BcII) was 135.9 ± 16.4 µM. The Km ([3]; other: BcII) was 40.4 ± 3.3 µM and the kcat ([3]; other: BcII) was 151 s⁻¹.

With NDM-1 (Klebsiella pneumoniae) the Km [4] was 17.6 ± 1.7 µM, the kcat [4] was 103 s⁻¹ and the kcat ([1]; other: NDM-1) was 126 s⁻¹. It also gave a Km ([2]; other: NDM-1) of 34.6 ± 6.6 µM, a kcat ([2]; other: NDM-1) of 92.5 s⁻¹ and a kcat ([3]; other: NDM-1) of 298 s⁻¹.

With SPM-1 (Pseudomonas aeruginosa) the Km ([2]; other: SPM-1) was 25.3 ± 6.1 µM and the kcat ([3]; other: SPM-1) was 27.4 s⁻¹.

VIM-2 (Escherichia coli) was tested, and the kcat ([1]; other: VIM-2) was 126 s⁻¹, the Km ([2]; other: VIM-2) was 26.1 ± 3.1 µM and the kcat ([2]; other: VIM-2) was 48.2 s⁻¹. For the same substance, the Km ([3]; other: VIM-2) was 15.2 ± 1.2 µM and the kcat ([3]; other: VIM-2) was 291 s⁻¹.
